Values quoted from earlier work as cited in patent US7217431B2, “Controlled agglomeration” (LifeCycle Pharma A/S, priority 2001, dated 2007).

Conditions: Table 1 Poorly-Soluble Drug Candidates

Question: With `Cc1nc2n(c(=O)c1CCN1CCC(c3noc4cc(F)ccc34)CC1)CCCC2` [Risperidone] as the compound, how does the “Solubility In Water” value read?
Answer: Insoluble
